pIC50: −log10 of the molar value.
Columns and labels:
BRD4 = BRD4 (Homo sapiens, UniProt O60885); experiment: in vitro BRD4 assay; conditions: read-out: IC50 BRD4
IL6 = experiment: IL-6 cell based assay; conditions: read-out: IC50 IL6
RIPK3 = RIPK3 (Homo sapiens, UniProt Q9Y572); experiment: in vitro RIP3 kinase assay; conditions: read-out: IC50 RIPK3
[1] = tested on: lewisite-induced skin injury; experiment: Lewisite-induced vesicant skin injury model
PAO-induced skin injury = experiment: PAO-induced cutaneous injury model, topical treatment; conditions: PAO-challenged skin
[2] = 1 mg/mouse, applied 30 minute and 6 hr post lewisite

The chains behind the UniProt entries cited, without tags or fusion partners. Where a name states a change or a piece, a line headed by the entry shows the natural chain unless it says otherwise.
UniProt Q9Y572: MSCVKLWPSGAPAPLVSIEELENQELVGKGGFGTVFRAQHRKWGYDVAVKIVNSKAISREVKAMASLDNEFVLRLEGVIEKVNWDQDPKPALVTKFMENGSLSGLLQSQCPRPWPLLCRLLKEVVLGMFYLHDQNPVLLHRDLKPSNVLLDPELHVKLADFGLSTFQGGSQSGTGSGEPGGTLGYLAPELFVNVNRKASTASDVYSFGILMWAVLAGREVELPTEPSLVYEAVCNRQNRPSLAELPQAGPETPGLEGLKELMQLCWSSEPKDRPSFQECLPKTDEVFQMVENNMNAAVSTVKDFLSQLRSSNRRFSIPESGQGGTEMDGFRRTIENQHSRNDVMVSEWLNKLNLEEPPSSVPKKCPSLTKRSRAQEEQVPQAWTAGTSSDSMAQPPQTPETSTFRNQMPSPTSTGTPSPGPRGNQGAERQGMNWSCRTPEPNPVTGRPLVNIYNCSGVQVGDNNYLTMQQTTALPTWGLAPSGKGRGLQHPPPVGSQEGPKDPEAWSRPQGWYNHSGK

SMILES | pIC50 (BRD4) | pIC50 (IL6) | pIC50 (RIPK3) | further results
O=C(O)c1ccc(Nc2ncc3nc(Nc4c(F)cc(F)cc4F)n(C4CCOCC4)c3n2)cc1 | < 4.40 | 4.72 | > 7.10 | 
Oc1ccc(Nc2ncc3nc(Nc4c(F)cc(F)cc4F)n(C4CCOC4)c3n2)cc1 (stereo not drawn) | 5.92 | 5.97 | 6.51 | 
Fc1cc(F)c(Nc2nc3cnc(Nc4ccccc4)nc3n2C2CCOCC2)c(F)c1 | 4.82 | 6.47 | 6.80 | 
Oc1ccc(Nc2ncc3nc(Nc4c(F)cc(F)cc4F)n(-c4ccc(O)cc4)c3n2)cc1 | 5.77 | > 6.70 | 5.84 | 
Fc1cc(F)c(Nc2nc3cnc(Nc4ccc(OC(F)(F)F)cc4)nc3n2C2CCOCC2)c(F)c1 | 4.87 | 6.06 | < 4.40 | 
COc1ccc(Nc2ncc3nc(Nc4c(F)cc(F)cc4F)n(C4CCOC4)c3n2)cc1 (stereo not drawn) | 5.03 | 5.66 | 5.88 | 
Oc1ccc(-n2c(Nc3c(F)cc(F)cc3F)nc3cnc(NC4CCOCC4)nc32)cc1 | 4.67 | 6.55 | 4.55 | 
Oc1cccc(Nc2ncc3nc(Nc4c(F)cc(F)cc4F)n(C4CCOCC4)c3n2)c1 | 4.93 | 6.55 | 7.05 | 
Fc1cc(F)c(Nc2nc3cnc(Nc4ccc(OC(F)F)cc4)nc3n2C2CCOCC2)c(F)c1 | 5.35 | 6.51 | 6.21 | 
Cc1noc2c1-c1ccccc1C(c1ccc(Cl)cc1)=N[C@H]2CC(N)=O |  |  |  | histopathological changes: infiltration of inflammatory cells and epidermal cell damage (H&E) ([1]; lewisite-challenged skin): significantly reduced both infiltration of inflammatory cells into the dermis
COc1ccc(Nc2ncc3nc(Nc4c(F)cc(F)cc4F)n(C4CCOCC4)c3n2)cc1 | 5.20 | 6.19 | 6.27 | 
Oc1ccc(Nc2ncc3nc(Nc4ccccc4)n(C4CCOCC4)c3n2)cc1 | 6.11 | 6.28 | 6.37 | 
Oc1ccc(Nc2ncc3nc(Nc4ccc(F)cc4)n(C4CCOCC4)c3n2)cc1 | 6.16 | 6.35 | 6.11 | 
CN(C)c1ccc(Nc2ncc3nc(Nc4c(F)cc(F)cc4F)n(C4CCOCC4)c3n2)cc1 | 5.42 | > 7.00 | 6.66 | 
COc1ccc(-n2c(Nc3c(F)cc(F)cc3F)nc3cnc(NC4CCOCC4)nc32)cc1 | 4.40 |  | < 4.40 | 
Oc1ccc(Nc2ncc3nc(Nc4c(F)cc(F)cc4F)n(C4CCOCC4)c3n2)cc1 | 6.28 | 6.21 | 7.05 | lewisite-induced skin damage, gross appearance of the skin [1, 2]: protected against lewisite-induced skin damage very significantly; skin bi-fold thickness and Draize score (erythema, edema, necrosis) [1, 2]: significant protection against lewisite-induced changes in these parameters; expression of BRD4-dependent inflammatory genes (IL-6, Saa3, Nfe212, Nlrp3), RT-PCR ([1]; lewisite-challenged skin): significantly reduced transcriptionally regulated BRD4-dependent inflammatory genes; expression of BRD4-regulated genes involved in skin tissue damage (Foxo3, Irf1, Bcl6), RT-PCR ([1]; lewisite-challenged skin): highly effective in attenuating the expression of genes associated with lewisite-induced skin tissue damage; histopathological changes: infiltration of inflammatory cells and epidermal cell damage (H&E) ([1]; lewisite-challenged skin): significantly reduced both infiltration of inflammatory cells into the dermis; protein expression of BRD4 and histone marks H3k9ac, H3k18ac, H4k5ac, H4K8ac (western blot) ([1]; lewisite-challenged skin, compared to CPI-0610 and ABBV-744): better or at least equally effective; nuclear expression of BRD4 and H3K9ac, immunohistochemistry ([1]; lewisite-treated skin): significantly reduced the nuclear expression of these proteins; BRD4 expression and histone marks H3K9ac and H4K5ac, densitometry of western blots (PAO-induced skin injury; 6 h and 24 hrs post PAO): significantly reduced BRD4 expression and BRD4-dependent H3 and H4 histone marks in a dose-dependent manner; mRNA expression of BRD4-regulated inflammatory genes (Nfe2l2, NLRP3, IL-6) (PAO-induced skin injury; 24 hrs, RT-PCR): decreased their levels even below the vehicle-treated control level; mRNA expression of BRD4 regulated genes involved in tissue damage (Foxo3, Cxcl13, Pell) (PAO-induced skin injury; 24 hrs, RT-PCR): diminution in the expression of mRNA of these genes; phosphorylation of RIPK3 and MLKL (RIPK3 signaling), western blot (PAO-induced skin injury; three topical doses, 10 minutes after PAO): significantly reduces this signaling in a dose-dependent manner
Fc1cc(F)c(Nc2nc3cnc(Nc4ccc(C(F)(F)F)cc4)nc3n2C2CCOCC2)c(F)c1 | 4.61 | 5.93 | < 4.40 | 
CCNC(=O)c1cc2c(-c3cc(C(C)(C)O)ccc3Oc3c(C)cc(F)cc3C)cn(C)c(=O)c2[nH]1 |  |  |  | histopathological changes: infiltration of inflammatory cells and epidermal cell damage (H&E) ([1]; lewisite-challenged skin): significantly reduced both infiltration of inflammatory cells into the dermis
Oc1ccccc1Nc1ncc2nc(Nc3c(F)cc(F)cc3F)n(C3CCOCC3)c2n1 | 4.40 |  | < 4.40 | 
COC(=O)c1ccc(Nc2ncc3nc(Nc4c(F)cc(F)cc4F)n(C4CCOCC4)c3n2)cc1 | 4.79 | 5.80 | 4.76 | 
COc1ccc(Nc2ncc3nc(Nc4c(F)cc(F)cc4F)n(-c4ccc(OC)cc4)c3n2)cc1 | 4.94 | 5.11 | 5.24 | 
COc1ccc(Nc2ncc3nc(Nc4c(F)cc(F)cc4F)n(C4CCN(C)CC4)c3n2)cc1 | 4.63 | > 7.01 | 5.61 | 
Oc1ccc(Nc2ncc3nc(Nc4c(F)cc(F)cc4F)n(C4CCNCC4)c3n2)cc1 | 5.16 | 7.30 | 8.00 | 
Fc1cc(F)c(Nc2nc3cnc(Nc4ccc(F)c(F)c4)nc3n2C2CCOCC2)c(F)c1 | 5.69 | 5.82 | 5.19 | 
CC(=O)Nc1c(F)cc(C(=O)N[C@H]2CC[C@H](O)CC2)cc1O[C@@H](C)c1ccccc1 |  |  |  | histopathological changes: infiltration of inflammatory cells and epidermal cell damage (H&E) ([1]; lewisite-challenged skin): afforded protection to the minimum level
Cc1ccc(Nc2ncc3nc(Nc4c(F)cc(F)cc4F)n(C4CCOCC4)c3n2)cc1 | 4.53 | 6.06 | 6.06 | 
Fc1ccc(Nc2ncc3nc(Nc4c(F)cc(F)cc4F)n(C4CCOCC4)c3n2)cc1 | 5.50 | 6.30 | 6.23 | 
COc1ccc(Nc2ncc3nc(Nc4c(F)cc(F)cc4F)n(C4CCNCC4)c3n2)cc1 | 4.80 | 8.00 | 6.96 | 
